The assay relates to L1210. Put plainly: Compound was tested in vivo for cytotoxicity against L1210 murine leukemia cells in mice after intravenous administration and is expressed as optimal non-toxic dose.

The molecule `CCN(CCCl)c1ccc(C(=O)Nc2cc(C(=O)Nc3cc(C(=O)Nc4cc(C(=O)NCCC(=N)N)n(C)c4)n(C)c3)n(C)c2)cc1` yielded an OD of 3.13 mg/kg.

For `CCN(CCCl)c1ccc(C(=O)Nc2cc(C(=O)Nc3cc(C(=O)Nc4cc(C(=O)NCCC(=N)N)n(C)c4)n(C)c3)n(C)c2)cc1C`, the OD is 1.56 mg/kg.

The molecule `Cn1cc(NC(=O)c2cc(NC(=O)c3cc(NC(=O)/C=C/c4ccc(N(CCCl)CCCl)cc4)cn3C)cn2C)cc1C(=O)NCCC(=N)N` showed an OD of 6.25 mg/kg.

As to `CCN(CCCl)c1ccc(/C=C/C(=O)Nc2cc(C(=O)Nc3cc(C(=O)Nc4cc(C(=O)NCCC(=N)N)n(C)c4)n(C)c3)n(C)c2)cc1`, the OD came out at 3.13 mg/kg.

Turning to `Cc1cc(C(=O)Nc2cc(C(=O)Nc3cc(C(=O)Nc4cc(C(=O)NCCC(=N)N)n(C)c4)n(C)c3)n(C)c2)ccc1N(CCCl)CCCl`, the OD stood at 3.13 mg/kg.

`Cc1cc(C(=O)Nc2cc(C(=O)Nc3cc(C(=O)Nc4cc(C(=O)NCCC(=N)N)n(C)c4)n(C)c3)n(C)c2)cc(C)c1N(CCCl)CCCl` yielded an OD of 6.25 mg/kg.

Molecule `Cn1cc(NC(=O)c2cc(NC(=O)c3cc(NC(=O)c4ccc(N(CCBr)CCBr)cc4)cn3C)cn2C)cc1C(=O)NCCC(=N)N` showed an OD of 0.39 mg/kg.

As to `CCCN(CCCl)c1ccc(C(=O)Nc2cc(C(=O)Nc3cc(C(=O)Nc4cc(C(=O)NCCC(=N)N)n(C)c4)n(C)c3)n(C)c2)cc1`, the OD came out at 3.13 mg/kg.

The record behind these values is ChEMBL document CHEMBL1129803, “Novel phenyl nitrogen mustard and half-mustard derivatives of distamycin A” (1997).
